# This is a selection; strong and weak results do not stand in their true shares. Activity calls are given as the source filed them.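 Rule for the calls: active = plate-corrected calcium response at least 3 library SD above typical, normal starting fluorescence, not activating the receptor alone; inactive = the rest.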
# Chains of the proteins cited; added tags and fusions are not shown.
# UniProt Q96LB2, whole entry: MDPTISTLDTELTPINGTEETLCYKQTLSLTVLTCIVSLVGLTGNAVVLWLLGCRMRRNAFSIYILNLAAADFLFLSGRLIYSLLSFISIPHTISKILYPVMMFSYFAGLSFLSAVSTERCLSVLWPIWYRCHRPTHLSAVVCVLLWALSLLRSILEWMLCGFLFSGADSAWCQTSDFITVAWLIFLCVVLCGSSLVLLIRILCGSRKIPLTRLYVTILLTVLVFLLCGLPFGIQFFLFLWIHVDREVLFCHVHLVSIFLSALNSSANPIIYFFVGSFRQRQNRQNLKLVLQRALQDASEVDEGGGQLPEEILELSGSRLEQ
# Molecular target: Mas-related G-protein coupled receptor member X1 (Homo sapiens) (UniProt Q96LB2)
# Test: positive allosteric modulators of MrgX1, primary screen, HEK293 cells, Fluo-4 calcium flux (AID 588675);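 note: compound read alongside a low EC10 to EC30 dose of BAM8-22 agonist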
# Details: MrgX1-HEK293, Fluo-4 calcium flux, FDSS, at 10 µM
row,Compound,outcome
1,CCOP(=O)(Nc1cccc2ccccc12)OCC,inactive
2,Cc1ccc(C)c(NP(C)(=O)Oc2ccccc2)c1 (stereo unspecified),inactive
3,CCCOP(=S)(Nc1nc(N)cc(=O)[nH]1)OCCC,inactive
4,Cc1cc(C)cc(OP(C)(=O)Nc2ccccn2)c1 (stereo unspecified),inactive
5,CP(=O)(Nc1cccc(Br)c1)Oc1ccccc1 (stereo unspecified),inactive
6,Nc1cccc2c([As](=O)(O)O)cccc12,inactive
7,Cc1ccc(NCCc2c([N+](=O)[O-])cc([N+](=O)[O-])cc2[N+](=O)[O-])cc1,inactive
8,CCOC(=O)c1ccc(NP(C)(=O)Oc2cc(C)cc(C)c2)cc1 (stereo unspecified),inactive
9,Cc1cccc(OCC(=O)OC2CN3CCC2CC3)c1 (stereo unspecified),inactive
10,O=[As](O)(c1cccc(O)c1)c1cccc(O)c1,inactive
11,Cc1cc(C)cc(OP(C)(=O)Nc2ccc(C)cc2C)c1 (stereo unspecified),inactive
12,O=[As](O)(O)c1cccnc1,inactive
13,COc1cc(C(=O)NCC2(N3CCOCC3)CCCCC2)cc(Cl)c1OC(C)C,inactive
14,CS(=O)(=O)c1ccc(Cl)c(NC(=O)COC(=O)C(O)(c2ccccc2)c2ccccc2)c1,inactive
15,COc1ccccc1OP(C)(=O)Nc1cccc(Br)c1 (stereo unspecified),inactive
16,O=C(OC1CN2CCC1CC2)c1ccc(Cl)cc1 (stereo unspecified),inactive
17,O=[N+]([O-])c1ccc2c(c1)nnn2O,inactive
18,CN(C)C(=O)c1cc([N+](=O)[O-])cc2c1-c1c(cc([N+](=O)[O-])cc1[N+](=O)[O-])C2=O,inactive
19,CC1=NCCc2c1[nH]c1ccccc21.O=[N+]([O-])c1cc([N+](=O)[O-])c(O)c([N+](=O)[O-])c1,inactive
20,CN(C(=O)Cc1ccc(Cl)c(Cl)c1)[C@H]1CC[C@@]2(CCCO2)C[C@@H]1N1CCCC1,inactive
21,N#CCCN(C(=O)COC(=O)C(O)(c1ccccc1)c1ccccc1)c1ccc(F)cc1,inactive
22,CCOP1(=S)c2c(C)nn(CCC#N)c2N=C(c2ccc(F)cc2)N1C (stereo unspecified),inactive

row,Compound,outcome
1,CN(C(=O)Cc1ccccc1)[C@@H]1CC[C@]2(CCCO2)C[C@H]1N1CCCC1,inactive
2,NC(=O)Nc1ccc([As](=O)(O)O)cc1,inactive
3,O=C(O)COc1ccc([As](=O)(O)O)cc1[N+](=O)[O-],inactive
4,Nc1ccccc1[As](=O)(O)c1ccccc1,inactive
5,CS(=O)(=O)c1cc([N+](=O)[O-])c2no[n+]([O-])c2c1,inactive
6,O=C(O)c1cccc(Nc2c([N+](=O)[O-])cc([N+](=O)[O-])cc2[N+](=O)[O-])c1,inactive
7,CCOP1(=S)c2c(C)nn(CCC#N)c2N=C(c2ccccc2F)N1C (stereo unspecified),inactive
8,O=P(Nc1nccs1)(Oc1ccccc1)Oc1ccccc1,inactive
9,O=P(Nc1nccs1)(c1ccccc1)c1nc2ccccc2s1 (stereo unspecified),inactive
10,O=[As](O)(c1cccs1)c1cccs1,inactive
11,Cc1ccc(OCC(=O)OC2CN3CCC2CC3)cc1 (stereo unspecified),inactive
12,O=P1(Nc2ccc(Br)cn2)COc2ccccc2OC1,inactive
13,CCCOc1ccc(NP(C)(=O)Oc2ccc(Cl)cc2)cc1 (stereo unspecified),inactive
14,Nc1cccc([As](=O)(O)c2ccccc2)c1,inactive
15,CP(=O)(Nc1ccc(SC(F)(F)F)cc1)Oc1ccccc1 (stereo unspecified),inactive
16,CN1CCCCC1COC(=O)C1(O)c2ccccc2CCc2ccccc21 (stereo unspecified),inactive
17,COc1ccccc1OP(C)(=O)Nc1c(C)cccc1C (stereo unspecified),inactive
18,O=P1(Nc2ncccn2)COc2ccccc2OC1,inactive
19,O=C(/C=C/c1ccccc1)OC1CN2CCC1CC2 (stereo unspecified),inactive
20,CC1=C2N=C(C=C3N=C(C(C)=C4[N-][C@@](C)([C@@H]5N=C1[C@](C)(CCC(=O)NC[C@@H](C)OP(=O)([O-])O[C@H]1[C@@H](O)[C@@H](n6cnc7cc(C)c(C)cc76)O[C@@H]1CO)[C@H]5CC(N)=O)[C@@](C)(CC(N)=O)[C@@H]4CCC(N)=O)[C@@](C)(CC(N)=O)[C@@H]3CCC(N)=O)C(C)(C)[C@@H]2CCC(N)=O.[C-]#N.[Co+3],inactive
21,CN(C)C1(CNC(=O)c2ccc(S(C)(=O)=O)cc2)CCCCC1,inactive
22,O=[N+]([O-])c1cc([N+](=O)[O-])c(Nc2nnnn2CCO)c([N+](=O)[O-])c1,inactive

row,Compound,outcome
1,CCOC(=O)C(CC)C1=NC(C)(C)Cc2ccccc21.O=[N+]([O-])c1cc([N+](=O)[O-])c(O)c([N+](=O)[O-])c1 (stereo unspecified),inactive
2,COc1cc(C2NCCC3(OCCO3)C2(C)C)cc(OC)c1OC.O=[N+]([O-])c1cc([N+](=O)[O-])c(O)c([N+](=O)[O-])c1 (stereo unspecified),inactive
3,Cc1nn(-c2ccccc2)c2c1P(=O)(N1CCOCC1)N(C)C(c1ccccc1)=N2 (stereo unspecified),inactive
4,Cc1ccc(C(=O)OC2CN3CCC2CC3)cc1 (stereo unspecified),inactive
5,CC1CCC(C(C)C)C(OP(=O)(Nc2ccccn2)c2ccccc2)C1 (stereo unspecified),inactive
6,O=[As](O)(c1ccccc1Br)c1ccccc1Br,inactive
7,Cc1nc2ccc3ccccc3c2s1.O=[N+]([O-])c1cc([N+](=O)[O-])c(O)c([N+](=O)[O-])c1,inactive
8,CC1(CBr)Cn2c(nc3ccccc3c2=O)S1 (stereo unspecified),inactive
9,CN(C(=O)Cc1ccc(Cl)c(Cl)c1)[C@@H]1CCCC[C@H]1N1CCCC1,inactive
10,CC(C)/C=N\N=C(\N)N[N+](=O)[O-],inactive
11,COc1ccccc1CNC(=O)COC(=O)C(O)(c1ccccc1)c1ccccc1,inactive
12,O=[N+]([O-])c1cc([N+](=O)[O-])c(-c2cnn(-c3ccccc3)c2)c([N+](=O)[O-])c1,inactive
13,Clc1n[nH]nc1-c1nn[nH][15n]1,inactive
14,CC(C)(C)C(=O)NC(Sc1ncccn1)C(Cl)(Cl)Cl (stereo unspecified),inactive
15,CCOP(=O)(Nc1ccc(C)cn1)OCC,inactive
16,CN(CCCl)Cc1cc(Cl)c(NC2=NCCN2)c(Cl)c1,inactive
17,CCC1=CC2Cc3nc4ccc(Cl)cc4c(N)c3C(C1)C2 (stereo unspecified),inactive
18,O=P1(Nc2ccccn2)COc2ccccc2OC1,inactive
19,O=[N+]([O-])c1cc([N+](=O)[O-])c(-n2nnc3ccccc32)c([N+](=O)[O-])c1,inactive
20,CCOP(=O)(NC(=NC(C)c1ccccc1)NC(C)c1ccccc1)OCC (stereo unspecified),inactive
21,CP(=O)(Nc1ccccn1)Oc1ccc(Cl)cc1 (stereo unspecified),inactive
22,CCC(C)N(CC(C)C)C(=S)SC(NC(C)=O)C(Cl)(Cl)Cl (stereo unspecified),inactive
